Biological target: Cholinesterase (Homo sapiens, UniProt P06276)
Assay: Inhibition of human BChE using butyrylthiocholine as substrate preincubated for 5 mins followed by substrate addition and measured after 2 mins by Perkin elmer based spectrophotometer analysis

The chains behind the UniProt entries cited, without tags or fusion partners. Residues count along the entry.
UniProt P06276, 29-602 limits assumed: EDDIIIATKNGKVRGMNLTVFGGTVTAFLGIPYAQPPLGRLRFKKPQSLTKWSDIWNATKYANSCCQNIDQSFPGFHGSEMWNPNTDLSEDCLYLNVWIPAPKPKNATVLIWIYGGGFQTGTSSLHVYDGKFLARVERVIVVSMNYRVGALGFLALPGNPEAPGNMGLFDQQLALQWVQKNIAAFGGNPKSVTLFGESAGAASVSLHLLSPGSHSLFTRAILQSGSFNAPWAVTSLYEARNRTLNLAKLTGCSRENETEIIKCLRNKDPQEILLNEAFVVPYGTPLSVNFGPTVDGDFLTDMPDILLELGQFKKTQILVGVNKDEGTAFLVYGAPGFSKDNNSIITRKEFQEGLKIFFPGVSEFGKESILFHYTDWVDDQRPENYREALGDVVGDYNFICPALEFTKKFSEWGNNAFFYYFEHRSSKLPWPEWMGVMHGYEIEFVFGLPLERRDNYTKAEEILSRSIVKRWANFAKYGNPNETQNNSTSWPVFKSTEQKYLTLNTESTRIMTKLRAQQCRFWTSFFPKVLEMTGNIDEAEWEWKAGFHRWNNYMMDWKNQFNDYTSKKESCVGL

| SMILES | IC50 [µM] |
| --- | --- |
| CC[N+](CC)(CCCCCn1c(=O)cc(C)n(CCCCn2c(C)cc(=O)n(C)c2=O)c1=O)Cc1ccccc1C(F)(F)F | 200 |
| CC[N+](CC)(CCCCCn1c(=O)cc(C)n(CCCn2c(C)cc(=O)n(C)c2=O)c1=O)Cc1ccccc1C(F)(F)F | 440 |

From BindingDB's records for 36462442
